Laboratory results reported in patent publication US20070157931A1, “System and method for optimized delivery of an aerosol to the respiratory tract” (priority 2005, published 2007).

Test: Aerosol deposition and clearance of radiotracers in lungs of ventilated sheep (Hawkeye imaging, gamma counting of lung tissue)
Format: in vivo
Conditions: Hi-Flo MiniHeart nebulizer
Description: The present study was designed to assess aerosol deposition patterns using jet nebulizers and the device of the present disclosure. These studies were conducted in the Vanderbilt University Medical Center Hawkeye scanning facility. Each sheep was surgically instrumented with catheters in a jugular vein and a carotid artery. After allowing several days for the sheep to recuperate from surgery, they were anesthetized, intubated, ventilated, and placed on the GE Hawkeye scanner bed. After a 30 minute acclimatization period, 500 μCi of ^99mTc-DTPA and 250 μCi of 131I-albumin were added to a syringe and the volume brought to 5 ml with normal saline. The contents of the syringe were then added to a nebulizer and aerosols generated for 30 minutes during ventilator-assisted inspiration. Planar images were taken every two minutes with anterior and posterior cameras. Nebulization was then halted, and clearance of the radiotracers over two hours was measured with Hawkeye in an identical manner. At the end of the radioisotope clearance image acquisition, a rotational CT image was taken of the sheep thoracic cavity to delineate lung boundaries and chest anatomy. The sheep was sacrificed and its lungs excised. Lungs were placed on grid paper and diced with a rectangular cutting grid. Lung tissue was placed in plastic vials and gamma energy emissions of each isotope measured with a gamma counter.

In the case of “131I-albumin: radiolabelled albumin tracer delivered as aerosol”, the “tracer remaining in lungs after halting aerosol generation” value (2 hours after halting aerosol generation) is reported as “much of the tracer remained” and the “radioisotope distribution in lung tissue” value (gamma counting of lung tissue samples) is reported as “higher dorsal (towards back) and caudal (towards tail) deposition”.
